Laboratory results from US20080027087A1 (AMPLA Pharmaceuticals, Inc., priority 2006, published 2008).

Experiment: acute administration: wet mash intake, food intake and body weight in lean male C57BL/6J mice
Assay type: in vivo
Conditions: dosed alone per the protocol; not as much of a reduction as the combinations with bupropion
Method: The goal of this study was to investigate the effects of various ratios of bupropion:(R)-norfluoxetine on body weight and food and water intake in male C57BL/6J mice habituated to the daily presentation of a palatable wet mash diet. Rimonabant was used as a reference compound. Animals were maintained on normal-phase lighting. Test compounds were administered orally and measurements were made over the following 24 hours. All experiments included appropriate vehicle-treated control groups.
Sixty-two male C57BL/6J mice (weight range 20-25 g) were ordered from Harlan UK, Bicester, UK. The mice were individually housed in polypropylene cages at a temperature of 21±4° C. and 55%±20% humidity. […]
Typically an acute study was run each week with each study containing 60 animals. […] Animals were weighed and 2 h wet mash intake was calculated (to the nearest 0.1 g). […]
Drug administration occurred 60 minutes before the presentation of ‘wet mash’ which was at approximately 09:30 am. […] The mash was replaced with a fresh quantity of wet mash at the 4 hour time point. […] Wet mash was replaced with a known quantity of standard pellets at the 6 hour time point. […] Food and water intakes of the different groups of animals were measured concurrently. The animals were monitored at each reading and any overt drug-induced behavioural effects were recorded. […]

NCC[C@@H](Oc1ccc(C(F)(F)F)cc1)c1ccccc1.O=C(O)C(O)C(O)C(=O)O [(R)-Norfluoxetine (D)-tartrate]
weight gain: reduction
wet mash intake: reduction
